This note sets out measurements from patent US20240158368A1, “Pyrrolidine Main Protease Inhibitors as Antiviral Agents” (AbbVie Inc., priority 2022, published 2024).

Amino acid sequences for entries named in this document (tags omitted). Residues count along the entry.
UniProt P0C6X6, 3247-3549 limits assumed: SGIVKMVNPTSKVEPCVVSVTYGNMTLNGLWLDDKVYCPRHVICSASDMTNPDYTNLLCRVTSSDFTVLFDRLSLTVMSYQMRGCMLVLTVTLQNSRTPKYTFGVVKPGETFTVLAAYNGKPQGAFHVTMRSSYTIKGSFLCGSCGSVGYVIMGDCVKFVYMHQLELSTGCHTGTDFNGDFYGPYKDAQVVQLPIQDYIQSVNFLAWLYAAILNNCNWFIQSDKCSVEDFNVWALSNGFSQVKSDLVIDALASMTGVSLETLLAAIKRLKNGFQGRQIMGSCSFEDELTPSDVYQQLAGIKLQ
UniProt P0C6X1, 2966-3267 limits assumed: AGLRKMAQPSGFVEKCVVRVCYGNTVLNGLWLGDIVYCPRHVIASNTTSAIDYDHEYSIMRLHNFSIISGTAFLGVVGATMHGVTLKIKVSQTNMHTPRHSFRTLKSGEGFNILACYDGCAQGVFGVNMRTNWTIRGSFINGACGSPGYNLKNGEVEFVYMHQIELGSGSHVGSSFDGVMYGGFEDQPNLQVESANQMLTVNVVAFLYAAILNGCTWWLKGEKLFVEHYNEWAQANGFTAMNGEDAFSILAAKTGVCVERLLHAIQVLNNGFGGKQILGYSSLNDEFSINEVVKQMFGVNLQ

Assay [1] addresses OC43 Mpro (Human coronavirus OC43 (HCoV-OC43), UniProt P0C6X6). In kind it is biochemical.
Assay [2] addresses SARS-CoV-2 Mpro (Severe acute respiratory syndrome coronavirus 2 (2019-nCoV) (SARS-CoV-2), UniProt P0DTD1). Particulars: read-out: SARS-CoV-2 EC50.
Assay [3] deals with 229E Mpro (Human coronavirus 229E (HCoV-229E), UniProt P0C6X1). It counts as biochemical.

Consider `N#Cc1cc(C(=O)N2CCOCC2)c(N2CC[C@H](NC(=O)c3cc(=O)[nH]c4c(F)cccc34)C2)c(C(F)(F)F)c1` [Compound 4], for which the concentration giving a half-maximal response (EC50) (in general, the concentration needed to bring the measured effect to its halfway point) in assay [1] worked out at 0.241 µM; in assay [2], 0.00872 µM; in assay [3], 0.0398 µM.

Regarding `O=C(N[C@H]1CCN(c2c(C(=O)N3CCOCC3)cc(Br)cc2C(F)(F)F)C1)c1cc(=O)[nH]c2c(F)cccc12` [Compound 47], the concentration giving a half-maximal response (EC50) in assay [1] is 0.138 µM; in assay [2], 0.0099 µM; in assay [3] it was 0.117 µM.
